Source: patent publication US9480726B2, “Leukotoxin E/D as a new anti-inflammatory agent and microbicide” (New York University, priority 2011, dated 2016)

Key:
[1] = test system: Primary human T lymphocytes from CCR5^+ donor; assay: LukE/D intoxication of primary T lymphocytes, viability by flow cytometry; settings: LukE/D vs. LukE/D+MVC
From the text: (§1) Cells were then stained with an anti-CCR5 antibody and a viability dye prior analysis by flow cytometry.
If CCR5 is the receptor of LukE/D, then primary host cells that their surfaces are decorated with CCR5 (e.g., T lymphocytes, macrophages, natural killer cells, dendritic cells, etc.) will be susceptible to LukE/D mediated cell death. To investigate this in more detail, primary human peripheral blood mononuclear cells (PBMC) were isolated from a wild type CCR5 (CCR5^+) donor and a Δ32CCR5 (CCR5^−) donor and the T lymphocytes expanded followed by intoxication with LukE/D and the viability of the cells determined by flow cytometry.

[2] = test system: primary human dendritic cells; assay: LukE/D cytotoxicity towards primary phagocytes, percent death by flow cytometry; settings: LukE/D vs. LukE/D+MVC
Experimental: as §1
(§2) In addition to T lymphocytes, the cytotoxic activity of LukE/D towards primary human macrophages and dendritic cells was also evaluated.

[3] = test system: primary human macrophages; assay: as above; settings: LukE/D vs. LukE/D+MVC
Experimental: as §1, §2

CCR5^+ Jurkat cells = assay: Blocking of LukE/D cytotoxicity by CCR5 antagonists, antibodies and ligands, CellTiter; settings: CCR5^+ Jurkat preincubated 30 minutes, then LukE/D, read 1 hour post-intoxication

Maraviroc [reference compound]
neutralization of LukE/D cytotoxicity [1]: potently neutralized | neutralization of LukE/D cytotoxic effect [2]: potently neutralized | neutralization of LukE/D cytotoxic effect [3]: potently neutralized | blocking of LukE/D mediated cytotoxicity (CCR5^+ Jurkat cells): potently blocked
